This is a sample that favours compounds with a hit; in the whole collection about 0.43% have one here.
GIV Gai3 FP = inhibitors of GIV peptide binding to Galpha-i3, primary screen, biochemical, fluorescence polarization, FITC-GIV GBA peptide, rat Galphai3 | 90 min; stronger effect = lower value; scaled: aluminum fluoride 0%, vehicle 100% | AID 1224905, 2016 | 210,000 compounds, 0.42% hits | percent of control (FP), % (concentration not given with the values) | Guanine nucleotide-binding protein G(i) subunit alpha-3 (Rattus norvegicus), P08753;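 active = replicate mean at 85% of control or lower, very high polarization wells dropped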;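 note: wells of about 15 µL received 100 nL stock; the first replicate is given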
HCMV NEC inh = inhibitors of HCMV UL50-UL53 nuclear egress complex interaction. inhibition, % (test concentration not listed). HTRF UL50-UL53 interaction, normalized percent inhibition. 190,000 tested, 0.15% active; in the data active means inhibition above about 27%, passing the limit was not always enough
GIV-Gai FP conf = GIV-Galpha-i3 inhibition, FP confirmation. shares compounds with GIV Gai3 FP. FITC-GIV peptide binding to Galphai3, fluorescence polarization; active compounds read low. fluorescence polarization, mP at 100 µM. 580 tested, 38% active;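 active means inhibition score of 15 or more, meaning 100 minus mean polarization as percent of control over three replicates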;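 further: lower mP means peptide displaced from Galphai3 so more inhibition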
GIV Gai AS conf = GIV-Galpha-i3 inhibition, AlphaScreen confirmation. shares compounds with GIV Gai3 FP. AlphaScreen Galphai3-GIV binding, purified proteins, 90 min; active compounds read low. AlphaScreen counts at 100 µM. 580 tested, 39% active;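 active means inhibition score at or above a set limit, where the score is 100 minus the three-replicate mean percent of control signal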
* marks the source's active call; other numbers are inactive results; nt = not tested or not shown.

Amino acid sequences for entries named in this document (tags omitted).
Guanine nucleotide-binding protein G(i) subunit alpha-3 (Rattus norvegicus), P08753, UniProt P08753, whole entry, looked up: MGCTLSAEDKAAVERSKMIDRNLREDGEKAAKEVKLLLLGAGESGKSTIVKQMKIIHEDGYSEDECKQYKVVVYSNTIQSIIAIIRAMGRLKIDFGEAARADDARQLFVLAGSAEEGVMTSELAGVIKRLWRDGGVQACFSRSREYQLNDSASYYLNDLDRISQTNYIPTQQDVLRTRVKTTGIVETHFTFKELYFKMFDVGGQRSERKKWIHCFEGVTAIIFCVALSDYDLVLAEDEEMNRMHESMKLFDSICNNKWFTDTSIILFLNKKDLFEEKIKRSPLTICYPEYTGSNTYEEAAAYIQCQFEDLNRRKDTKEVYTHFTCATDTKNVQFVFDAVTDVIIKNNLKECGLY

smiles,GIV Gai3 FP,HCMV NEC inh,GIV-Gai FP conf,GIV Gai AS conf
CCC(=O)Oc1ccc(/C=C(\C#N)c2nc3ccccc3[nH]2)cc1OC,88.7,-85.0,92.3,29157
COc1cc(/C=C(\C#N)c2nc3ccccc3[nH]2)ccc1OCc1ccccc1F,113.3,-47.6,nt,nt
COc1ccc(-c2nnc(-c3ccccc3)o2)cc1S(N)(=O)=O,104.9,nt,nt,nt
Cc1cc(=O)oc2cc(Oc3nncc4ccccc34)ccc12,nt,-1.2,nt,nt
CCOC(=O)c1c(C)c(-c2ccccc2)n(CC(=O)N2CCC(C)CC2)c1C,102.9,-9.5,nt,nt
O=C(C1CCCCC1)N1CCC(c2nc(-c3ccc(F)cc3)no2)CC1,98.4,-17.4,nt,nt
CN1C(=O)Cc2ccccc21,101.3,-2.8,nt,nt
CN1C(=O)Cc2ccccc2C1=O,79.6*,66.6*,59.1*,17985*
COc1ccc(Nc2cc(C)c3cc(NC(=O)c4ccccc4C)ccc3n2)cc1,112.4,-1.1,nt,nt
COc1ccc(-c2noc(CCCC(=O)Nc3nccs3)n2)cc1,91.4,-18.3,65.3,44685

Remaining list, next part.
smiles,GIV Gai3 FP,HCMV NEC inh,GIV-Gai FP conf,GIV Gai AS conf
CNC(=O)CCCc1nc(-c2ccc(OC)cc2)no1,101.2,-6.1,nt,nt
CCCOC(=O)C1=C(C)NC2=C(C(=O)CC(c3ccc(OC)c(OC)c3)C2)C1c1ccccc1OCC (configuration not stated),100.0,-5.7,nt,nt
COC(=O)c1[nH]c(C(=O)OC)c(O)c1O,59.1*,-11.6,65.4,50522
COC(=O)c1[nH]c(C)c(C(=O)OC)c1C,nt,-5.6,nt,nt
Cc1cc(/C=N/NC(=O)c2cccnc2)c(C)n1-c1cccc(S(=O)(=O)N2CCOCC2)c1,nt,-20.5,nt,nt
Cc1ccc(C)n1-c1cc(Cl)ccc1C(=O)O,60.4*,79.7*,58.8*,2339*
CC(=O)Nc1ccc(-n2c(C)ccc2C)c(C(=O)O)c1,nt,4.8,nt,nt
Cc1ccc(C)n1-c1ccccc1C(=O)O,5.7*,30.1,11.4*,1962*
CCCOc1ccc(Cl)cc1C(=O)O,99.9,3.2,nt,nt
O=C(CN(c1cccc([N+](=O)[O-])c1)S(=O)(=O)c1ccccc1)N1CCN(Cc2ccccc2)CC1,100.2,-17.0,nt,nt

The list goes on.
smiles,GIV Gai3 FP,HCMV NEC inh,GIV-Gai FP conf,GIV Gai AS conf
CCCn1cc(S(=O)(=O)c2ccc(OC)cc2)c(=O)c2cc(F)c(N3CCN(C)CC3)cc21,67.9*,-11.7,71.4,35545
CCCn1cc(S(=O)(=O)c2ccc(CC)cc2)c(=O)c2cc(F)c(N3CCN(C)CC3)cc21,110.1,nt,nt,nt
Cc1ccccc1-c1nn2c(=O)cc(N3CCN(C(=O)Nc4cccc(Cl)c4C)CC3)nc2s1,100.3,27.8,nt,nt
Cc1ccc(NC(=O)N2CCN(c3cc(=O)n4nc(-c5ccccc5C)sc4n3)CC2)c(Cl)c1,91.5,5.1,81,28227
CCc1ccc(OCc2nc(C)c(C(=O)Nc3nnc(C4CC4)s3)s2)cc1,101.0,-20.5,nt,nt
COCCNC(=O)c1ccc(NCCc2ccc(Cl)cc2)c(S(=O)(=O)Nc2cccc(C(F)(F)F)c2)c1,113.2,nt,nt,nt
Cc1cccc(-c2nc3nc(C)cc(N4CCN(c5ccccc5)CC4)n3n2)c1,102.7,-35.6,nt,nt
Cc1ccc(-c2nc3nc(C)cc(N4CCN(c5cccc(C)c5)C(C)C4)n3n2)cc1 (configuration not stated),73.5*,9.9,84.4,32703
O=c1sc2ccccc2n1Cc1nnc(-c2ccccc2)o1,92.1,19.3,74.4,33349
O=c1sc2ccccc2n1Cc1ccccc1,nt,3.5,nt,nt

Next part
smiles,GIV Gai3 FP,HCMV NEC inh,GIV-Gai FP conf,GIV Gai AS conf
CCCCN(C)c1ncnc2onc(-c3ccc(F)cc3)c12,104.5,nt,nt,nt
Cc1cccc(NC(=O)c2ccc3nnc(SCC(=O)Nc4cccc(F)c4)n3c2)c1,103.2,nt,nt,nt
CCN(C(=O)c1ccc(N2C(=O)CCS2(=O)=O)cc1Cl)C1CCS(=O)(=O)C1 (configuration not stated),107.5,-21.1,nt,nt
COc1ccc(-c2nc(-c3ccc4c(c3)[nH]c(=O)c(=O)n4C)no2)cc1,103.0,15.8,nt,nt
COc1ccc(-c2nc(-c3ccc4c(c3)[nH]c(=O)c(=O)n4C)no2)cc1OC,85.7,4.3,80.9,27124
CC(C)n1cnc(S(=O)(=O)N2CCCC(C(=O)N3CCN(C4CCCCC4)CC3)C2)c1 (configuration not stated),106.5,-21.4,nt,nt
CN(C)/C=C/C=C/c1cc(=O)cc(/C=C/C=C/N(C)C)o1,5.8*,66.9*,25.3*,2403*
COc1ccc(-n2c3nc(=O)[nH]c(=O)c-3cc3ccccc32)cc1,71.1*,nt,64.5,8986*
Cc1ccc(-n2c3nc(=O)[nH]c(=O)c-3cc3ccccc32)cc1Cl,104.6,nt,nt,nt
Cn1c(=O)c2nc3ccc(NC(=O)C(F)(F)F)cc3nc2n(C)c1=O,78.9*,-73.7,66.8,29111

Reprinted at random: 2 compounds from above
smiles,GIV Gai3 FP,HCMV NEC inh,GIV-Gai FP conf,GIV Gai AS conf
CC(C)n1cnc(S(=O)(=O)N2CCCC(C(=O)N3CCN(C4CCCCC4)CC3)C2)c1 (configuration not stated),106.5,-21.4,nt,nt
Cc1cccc(NC(=O)c2ccc3nnc(SCC(=O)Nc4cccc(F)c4)n3c2)c1,103.2,nt,nt,nt

Other structures follow.
smiles,GIV Gai3 FP,HCMV NEC inh,GIV-Gai FP conf,GIV Gai AS conf
Cc1cc2nc3c(=O)n(C)c(=O)n(C)c3nc2cc1N,95.5,nt,nt,nt
CC1=C(C(=O)OC(C)C)C(c2ccc(C(C)C)cc2)C(C#N)=C(N)S1 (configuration not stated),nt,-8.5,nt,nt
CC(C)c1ccc(C2C(C#N)=C(N)N3C(=C2C#N)Sc2ccccc23)cc1 (configuration not stated),78.9*,nt,75.4,39185
c1ccc(C(c2ccccc2)c2nn3c(-c4cccnc4)nnc3s2)cc1,106.2,-49.7,nt,nt
CC(C)CN(C(=O)CSC1=Nc2ccccc2C2CC=NN12)C1CCS(=O)(=O)C1 (configuration not stated),nt,-24.1,nt,nt
COc1ccc2c(CC(=O)Nc3ccccc3)coc2c1,nt,-30.7,nt,nt
COc1ccc2c(CC(=O)O)coc2c1,89.7,-13.3,67.6,38743
COc1cc(-c2nc(C=Nc3ccc4ccccc4c3)c(O)o2)cc(OC)c1OC,104.4,nt,nt,nt
COC(=O)c1ccc(N=Cc2nc(-c3cc(OC)c(OC)c(OC)c3)oc2O)cc1,95.4,nt,58.2,54563
O=C(CSC1=NS(=O)(=O)c2ccccc21)Nc1ccccc1,66.1*,-16.7,59.2,10980*

Overlap with the part before: 5 entries; new compounds follow.
smiles,GIV Gai3 FP,HCMV NEC inh,GIV-Gai FP conf,GIV Gai AS conf
COc1ccc2c(CC(=O)Nc3ccccc3)coc2c1,nt,-30.7,nt,nt
COc1ccc2c(CC(=O)O)coc2c1,89.7,-13.3,67.6,38743
COc1cc(-c2nc(C=Nc3ccc4ccccc4c3)c(O)o2)cc(OC)c1OC,104.4,nt,nt,nt
COC(=O)c1ccc(N=Cc2nc(-c3cc(OC)c(OC)c(OC)c3)oc2O)cc1,95.4,nt,58.2,54563
O=C(CSC1=NS(=O)(=O)c2ccccc21)Nc1ccccc1,66.1*,-16.7,59.2,10980*
COc1ccc(CCNC(=O)CSC2=NS(=O)(=O)c3ccccc32)cc1OC,97.0,-16.3,nt,nt
O=C1CCC(=O)N1c1ccc(C2CCCCC2)cc1,103.5,-13.0,nt,nt
O=C(Nc1ccc(F)cc1)c1nnc(C(=O)N2CCCC(C(=O)NCCCc3ccccc3)C2)s1 (configuration not stated),106.0,-16.0,nt,nt
COc1ccc(-c2c(C#N)c(N)n3c(nc4ccccc43)c2C#N)cc1OC,83.2*,-7.5,63.4,61581
COc1ccc(-c2c(C#N)c(N)n3c(nc4ccccc43)c2C#N)cc1O,105.3,nt,nt,nt
COc1ccc(-c2cc(C(=O)Nc3ccc(OC)cc3OC)c3ccccc3n2)cc1,102.8,nt,nt,nt
O=C(Nc1ccc(N2CCOCC2)c2nonc12)c1ccco1,112.6,0.1,nt,nt
Nc1ccc(N2CCOCC2)c2nonc12,63.0*,4.9,46.3*,2710*
CCOC(=O)c1ccc(-c2ccc(/C=c3/sc4nc5c(C)c(C)ccc5n4c3=O)o2)cc1,78.7*,nt,66.3,32406
CCOc1cc(/C=c2\sc3nc4c(C)c(C)ccc4n3c2=O)cc(Cl)c1O,nt,0.0,nt,nt

(listing goes on)
smiles,GIV Gai3 FP,HCMV NEC inh,GIV-Gai FP conf,GIV Gai AS conf
CCOC(=O)C1CCN(c2ccc(-c3nc(-c4ccccc4)no3)nn2)CC1,99.0,-29.6,nt,nt
CCOc1ccc2nc(N3CCCC(C(=O)N4CCC(Cc5ccccc5)CC4)C3)sc2c1 (configuration not stated),100.0,-9.2,nt,nt
CCOC(=O)CSc1nc(NCc2ccc3c(c2)OCO3)c2ccccc2n1,112.2,nt,nt,nt
CCOC(=O)c1nc2ccccc2nc1NCc1ccc2c(c1)OCO2,92.9,-13.4,68,39953
